{
  "sequences": {"note": "Sequences of proteins named here, by UniProt entry; tags and fusion partners are left off.", "UniProt P21453, whole entry": "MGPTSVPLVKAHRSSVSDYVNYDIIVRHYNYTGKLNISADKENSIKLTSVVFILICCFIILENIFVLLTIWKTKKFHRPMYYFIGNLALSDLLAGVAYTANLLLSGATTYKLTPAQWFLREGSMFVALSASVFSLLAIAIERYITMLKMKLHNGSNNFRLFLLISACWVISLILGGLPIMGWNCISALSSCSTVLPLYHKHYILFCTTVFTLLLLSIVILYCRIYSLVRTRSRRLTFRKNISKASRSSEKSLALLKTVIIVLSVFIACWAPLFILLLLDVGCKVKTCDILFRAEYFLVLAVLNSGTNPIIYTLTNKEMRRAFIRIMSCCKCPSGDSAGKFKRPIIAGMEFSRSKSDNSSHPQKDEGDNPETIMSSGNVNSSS"},
  "source": "patent US10676467B2",
  "about": "(Washington University, priority 2017, dated 2020)",
  "target": "recombinant human S1P1 (Homo sapiens (Human), UniProt P21453)",
  "test": "[32P]S1P competitive binding assay on cell membranes",
  "note": "Where two headings read alike, the source gives them in different places.",
  "data": [
    {"smiles": "OCc1ccc(-c2noc(-c3ccc(OCCF)c(C(F)(F)F)c3)n2)cc1", "note": "[Compound 8c, (4-(5-(4-(2-Fluoroethoxy)-3-(trifluoromethyl)phenyl)-1,2,4-oxadiazol-3-yl)phenyl)methanol]", "values": [
      {"measurement": "IC50", "setting": "Table 9, avg, n = 2-3, read-out: S1P1 IC50, second value in parentheses (average) (converted)", "value": 10.5, "unit": "nM"},
      {"measurement": "IC50", "setting": "competition against [32P]S1P, membranes with recombinant human S1P1, mean ± SD, listed as TZ35104, read-out: S1P1 IC50 ± SD", "value": "6.67 ± 0.7", "unit": "nM"}
    ]}
  ]
}
